{"source": "patent US5145854A", "about": "“1-formyl-5,8,10-trideazafolates” (priority 1991, dated 1992)", "target": "T1, hog liver glycinamide ribonucleotide formyltransferase (GARFTase) (Sus scrofa, UniProt A0A8W4FJW8)", "T1 construct": "hog liver glycinamide ribonucleotide formyltransferase; from tissue; host or cells: hog liver", "T1 sequence (A0A8W4FJW8 1-1009)": "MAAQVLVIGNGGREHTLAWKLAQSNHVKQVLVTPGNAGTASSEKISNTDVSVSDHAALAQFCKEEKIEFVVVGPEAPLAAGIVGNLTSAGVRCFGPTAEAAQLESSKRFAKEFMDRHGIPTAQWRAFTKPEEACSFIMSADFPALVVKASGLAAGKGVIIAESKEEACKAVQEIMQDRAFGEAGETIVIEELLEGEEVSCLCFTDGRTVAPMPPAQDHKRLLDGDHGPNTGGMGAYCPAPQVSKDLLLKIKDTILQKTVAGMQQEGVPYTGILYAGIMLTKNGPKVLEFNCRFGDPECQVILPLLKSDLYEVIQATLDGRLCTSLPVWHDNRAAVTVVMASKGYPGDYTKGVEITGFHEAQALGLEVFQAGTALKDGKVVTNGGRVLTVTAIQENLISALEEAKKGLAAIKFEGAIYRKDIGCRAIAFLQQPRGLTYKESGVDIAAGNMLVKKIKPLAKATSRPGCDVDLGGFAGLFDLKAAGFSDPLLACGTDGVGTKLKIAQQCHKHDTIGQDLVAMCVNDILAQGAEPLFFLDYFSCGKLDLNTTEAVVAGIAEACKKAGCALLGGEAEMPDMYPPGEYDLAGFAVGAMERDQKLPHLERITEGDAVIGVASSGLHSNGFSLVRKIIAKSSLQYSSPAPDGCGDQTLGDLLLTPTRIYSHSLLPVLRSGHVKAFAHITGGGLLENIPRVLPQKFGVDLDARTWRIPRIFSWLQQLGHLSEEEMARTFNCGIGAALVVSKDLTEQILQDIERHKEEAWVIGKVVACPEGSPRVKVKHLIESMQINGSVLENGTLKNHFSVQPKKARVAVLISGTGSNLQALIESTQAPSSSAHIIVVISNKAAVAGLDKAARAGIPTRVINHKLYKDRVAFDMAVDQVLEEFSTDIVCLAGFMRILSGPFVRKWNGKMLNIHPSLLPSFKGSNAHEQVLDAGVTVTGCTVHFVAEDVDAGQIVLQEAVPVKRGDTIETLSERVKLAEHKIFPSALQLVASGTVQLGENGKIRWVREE", "experiment": "Inhibition of hog liver glycinamide ribonucleotide formyltransferase", "assay_type": "biochemical", "description": "The representative compound of the present invention is 10-formyl-5,8,10-trideazatetrahydrofolic acid (FTDF) having the formula 1."}
{"smiles": "Nc1nc2c(c(=O)[nH]1)CC(CCc1ccc(C(=O)N[C@@H](CCC(=O)O)C(=O)O)cc1)CN2", "note": "(stereo partly shown) [DDATHF, 5,10-dideazatetrahydrofolic acid]", "values": [{"measurement": "IC50", "value": 220, "unit": "nM"}]}
